This assay concerns the target MAPK14 (human) (UniProt Q16539). Put plainly: Inhibition of MAPK14 Kinase Activity.

Sequences of proteins named here, by UniProt entry; tags and fusion partners are left off.
UniProt Q16539, whole entry, looked up: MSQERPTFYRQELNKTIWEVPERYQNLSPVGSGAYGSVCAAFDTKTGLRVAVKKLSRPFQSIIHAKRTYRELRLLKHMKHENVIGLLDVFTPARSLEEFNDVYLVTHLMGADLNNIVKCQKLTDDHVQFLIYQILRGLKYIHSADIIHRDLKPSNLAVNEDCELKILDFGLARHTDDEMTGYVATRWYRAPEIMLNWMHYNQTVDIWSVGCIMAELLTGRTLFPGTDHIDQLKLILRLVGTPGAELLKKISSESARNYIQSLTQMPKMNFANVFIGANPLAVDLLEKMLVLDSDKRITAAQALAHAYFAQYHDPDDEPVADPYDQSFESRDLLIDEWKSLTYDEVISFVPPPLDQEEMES

For the molecule `O=c1c(Oc2ccc(F)cc2F)cc2cnc(NC3CCOCC3)nc2n1CCCO`, the IC50 lay within 1 to 100 nM.

Usually IC50 stands for the concentration needed to halve the response being measured.

The values are drawn from the Kinase Knowledgebase extract (Sharma et al. 2016).
